The record followed here is patent EP3760204A1, “MEDICAMENT FOR PREVENTION OR TREATMENT OF HUNTINGTON'S DISEASE” (Medizinische Universität Graz, priority 2019, dated 2021).

This series deals with TFEB. As to conditions: shPXR HepG2 cells, 50µM; Figure 7D. On the procedure:
Western blot: Protein lysate was generated by homogenization (Magnalyzer, Roche) of tissue or cell pellet in homogenization buffer with protease and phosphatase inhibitors (Halt tablets, Invitrogen). After homogenization, lysates were sonicated 2x for 10" each. Lysates were then centrifuged for 10 min at 4°C and the supernatant was subjected to BCA protein estimation (Thermo Fisher). Equal amounts of lysate were loaded to self-made acrylamide gels. After separation, the protein was transferred to a PVDF membrane with semi-dry transfer.

Take `CO[C@H]1/C=C/O[C@@]2(C)Oc3c(C)c(O)c4c(O)c(c(/C=N/N5CCN(C)CC5)c(O)c4c3C2=O)NC(=O)/C(C)=C\C=C\[C@H](C)[C@H](O)[C@@H](C)[C@@H](O)[C@@H](C)[C@H](OC(C)=O)[C@@H]1C` [rifampicin]: the “TFEB protein expression in shPXR cells” value is “not inducible”.
